other: percent of cells in Q1-UR quadrant (PD-1-GFP positive, MW11-h317-APC positive) data for four molecules are collected here from article PMC6814707.

Chains of the proteins cited; added tags and fusions are not shown. A line that says so, or that is headed by a name, gives the form on record, which may keep a tag or linker.
MW11-h317 (humanized anti-PD-1 monoclonal antibody), one chain, as listed by the source, chain 1 of 2: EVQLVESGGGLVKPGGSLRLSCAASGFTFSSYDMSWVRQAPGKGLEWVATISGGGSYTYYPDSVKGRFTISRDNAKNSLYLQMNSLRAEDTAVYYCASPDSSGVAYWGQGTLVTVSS
MW11-h317 (humanized anti-PD-1 monoclonal antibody), one chain, as listed by the source, chain 2 of 2: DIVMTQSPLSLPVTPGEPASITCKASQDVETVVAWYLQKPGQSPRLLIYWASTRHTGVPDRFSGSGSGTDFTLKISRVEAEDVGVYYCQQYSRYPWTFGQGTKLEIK

This assay deals with MW11-h317 (humanized anti-PD-1 monoclonal antibody). Nature of the assay: flow cytometry on cells. The conditions noted are these: chain shown with the change; HEK 293 cells transfected with PD-1 (WT or mutant) fused with EGFP; MW11-h317 detected in the APC channel. Background: A flow cytometer gives signals particle by particle.

B1: WT PD-1 (lacking the intracellular region) fused with EGFP, on HEK 293 cells N58A (protein)
chain: LDSPDRPWNPPTFSPALLVVTEGDNATFTCSFSATSESFVLNWYRMSPSNQTDKLAAFPEDRSQPGQDCRFRVTQLPNGRDFHMSVVRARRNDSGTYLCGAISLAPKAQIKESLRAELRVTERRAEVPTAHPSPSPRPAGQFQTLVVGVVGGLLGSLVLLVWVLAVI
Regarding B1, the other: percent of cells in Q1-UR quadrant (PD-1-GFP positive, MW11-h317-APC positive) came to 1.67%.

B2: WT PD-1 (lacking the intracellular region) fused with EGFP, on HEK 293 cells N49A (protein)
chain: LDSPDRPWNPPTFSPALLVVTEGDAATFTCSFSNTSESFVLNWYRMSPSNQTDKLAAFPEDRSQPGQDCRFRVTQLPNGRDFHMSVVRARRNDSGTYLCGAISLAPKAQIKESLRAELRVTERRAEVPTAHPSPSPRPAGQFQTLVVGVVGGLLGSLVLLVWVLAVI
Molecule B2 came in with an other: percent of cells in Q1-UR quadrant (PD-1-GFP positive, MW11-h317-APC positive) of 31.1%.

B3: WT PD-1 (lacking the intracellular region) fused with EGFP, on HEK 293 cells N116A (protein)
chain: LDSPDRPWNPPTFSPALLVVTEGDNATFTCSFSNTSESFVLNWYRMSPSNQTDKLAAFPEDRSQPGQDCRFRVTQLPNGRDFHMSVVRARRADSGTYLCGAISLAPKAQIKESLRAELRVTERRAEVPTAHPSPSPRPAGQFQTLVVGVVGGLLGSLVLLVWVLAVI
Molecule B3 gave an other: percent of cells in Q1-UR quadrant (PD-1-GFP positive, MW11-h317-APC positive) of 25.2%.

B4: WT PD-1 (lacking the intracellular region) fused with EGFP, on HEK 293 cells N74A (protein)
chain: LDSPDRPWNPPTFSPALLVVTEGDNATFTCSFSNTSESFVLNWYRMSPSAQTDKLAAFPEDRSQPGQDCRFRVTQLPNGRDFHMSVVRARRNDSGTYLCGAISLAPKAQIKESLRAELRVTERRAEVPTAHPSPSPRPAGQFQTLVVGVVGGLLGSLVLLVWVLAVI
B4 registered an other: percent of cells in Q1-UR quadrant (PD-1-GFP positive, MW11-h317-APC positive) of 25.8%.
